AlphaSeq binding of Ab-14 heavy chain variants to a spike HR2 peptide

Reference: Li et al. 2023, doi:10.1038/s41467-023-39022-2. File: FLAb, binding data.

Antigen: PDVDLGDISGINAS, a 14-residue peptide of the SARS-CoV-2 spike HR2 region.

The variants keep the light chain, the linker and the frameworks of Ab-14 (scFv order VH, a 15-residue (Gly4Ser)3 linker, VL).
VH: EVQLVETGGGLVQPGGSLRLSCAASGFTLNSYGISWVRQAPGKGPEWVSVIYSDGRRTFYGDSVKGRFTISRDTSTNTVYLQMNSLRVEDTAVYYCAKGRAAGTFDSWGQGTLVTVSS
VL: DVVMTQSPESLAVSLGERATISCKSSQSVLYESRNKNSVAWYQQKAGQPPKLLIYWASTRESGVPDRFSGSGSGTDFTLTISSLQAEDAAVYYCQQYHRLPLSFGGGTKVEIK

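This is the validation round: designs drawn from the data on random variants, tested in the same kind of assay. Their group label is 14H_En_Gen (En: ensemble of fine-tuned language models; Gen: genetic algorithm). In AlphaSeq, yeast of one mating type display the scFv and yeast of the other type display the target. The frequency of each diploid, read from paired DNA barcodes, reflects how well the two displayed proteins bind. Each replicate has its own calibration line, from reference interactions of the BCL2 family. The assay was run in six technical replicates.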

Each variant is given by its three heavy chain CDRs, as the data file delimits them; those of the parent are GFTLNSYGIS, VIYSDGRRTFYGDSVK, GRAAGTFDS.
The read-out is the apparent dissociation constant on a log10 scale (nM): the lower, the stronger.
A pair that was not seen in that replicate is written "ND"; this usually means weak binding, but a binder can also be missed.
The authors averaged sequences with at least three values out of six and counted those with two or fewer as poor binders.
The range of this assay differs from that of the first round, and the authors advise against merging the two.
As a blank, each scFv also met three strains without target: over all heavy chain designs, 1% of these pairings were detected, typically at 2.08 and seldom below 0.84. Also given: how often the same scFv was detected with the empty control strains, with their mean in brackets.
Of ten entries with the parent sequence, four were seen in most replicates (averages 0.34 to 2.37), three in one and three in none, so single entries are noisy.

CDR-H1,CDR-H2,CDR-H3,log10 Kd (nM) by replicate,empty controls
GFDLNEYGIS,VIYADGMRTAYSDKVK,GNNAGTFDI,-0.12 / -0.14 / -0.44 / -0.59 / -0.39 / -0.31,0/18
GFDLNEYGIS,VIYADGQRTAYADNVK,GNQAGTFDV,-0.10 / -0.53 / 0.46 / -0.53 / -0.37 / -1.24,0/18
GFDLNEYGIS,VIYADGQRTFYADSVK,GENAGTFDI,-0.18 / -0.10 / -0.64 / -0.55 / -0.34 / 0.42,1/18 (1.52)
GFDLNEYGIS,VIYADGQRTAYADDVK,GENAGTFDM,ND / ND / ND / ND / ND / ND,0/18
GFDLNEYGIS,VIYADGMRTAYADNVK,GQVAGTFDM,-0.51 / -0.47 / 0.28 / -1.02 / -0.23 / -0.57,0/18
GFDLDEYGIS,VIYADGKRTAYADSVK,GNTAGTFDM,ND / -0.09 / ND / -0.86 / ND / -0.36,0/18
GFDLNEYGIS,VIYADGMRTAYADDVK,GGVAGTFDV,-0.58 / -0.65 / -0.84 / -0.97 / -0.95 / -0.11,0/18
GFDLNEYGIS,VIYADGMRTAYADNVK,GNEAGTFDL,ND / ND / ND / ND / ND / ND,0/18
GFDLNEYGIS,VIYADGMRTAYSDNVK,GNVAGTFDL,-0.40 / -0.44 / -0.59 / -0.76 / -0.73 / -0.62,0/18
GFDLNEYGIS,VIYADGKRTYYADSVK,GNNAGTFDV,-0.57 / -0.49 / -0.36 / -0.55 / -0.81 / -0.25,1/18 (1.12)
GFDLNEYGIS,VIYADGMRTFYADSVK,GSNAGTFDV,-0.19 / 0.55 / ND / ND / 1.05 / 1.08,0/18
GFDLNEYGIS,VIYADGMRKAYADDVK,GNNAGTFDQ,-0.16 / -0.23 / -0.27 / -0.53 / 0.04 / 0.10,0/18
GFDLNEYGIS,VIYADGRRTAYADSVK,GNAAGTFDV,-0.54 / -0.68 / -0.74 / -0.77 / -0.68 / -0.33,0/18
GFDLNEYGIS,VIYADGSRTFYADSVK,GNVAGTFDL,-0.57 / -0.85 / -0.99 / -0.97 / -0.89 / -0.78,0/18
GFDLNEYGIS,VIYADGMRTAYADSVK,GNQAGTFDV,1.14 / 0.53 / 0.73 / 1.00 / 1.41 / 1.11,0/18
GFDLNEYGIS,VIYADGMRTAYADQVK,GNVAGTFDV,-0.94 / -0.16 / -0.59 / -0.84 / -0.51 / -0.81,1/18 (2.21)
GFDLNEYGIS,VIYADGQRTFYADSVK,GTNAGTFDV,ND / ND / ND / ND / ND / ND,0/18
GFDLNEYGIS,VIYADGSRTAYIDSVK,GNVAGTFDQ,1.11 / 1.25 / 1.02 / 0.65 / 0.85 / 0.94,1/18 (1.65)
GFDLNEYGIS,VIYADGMRTYYTDSVK,GENAGTFDV,-0.01 / -0.27 / 0.08 / -0.62 / -0.25 / -0.14,0/18
GFDLNEYGIS,VIYADGMRTAYADDVK,GDNAGTFDV,-0.34 / -0.83 / -0.61 / -0.36 / -0.35 / -0.26,0/18
GFDLDEYGIS,VIYADGKRTAYADDVK,GEVAGTFDL,-0.73 / -0.95 / -0.83 / -0.76 / -1.32 / -1.28,0/18
GFDLNEYGIS,VIYADGMRKFYADSVK,GQNAGTFDV,-0.32 / -0.44 / -0.53 / -0.47 / -0.78 / -0.39,0/18
GFNLNEYGIS,VIYADGMRTAYADSVK,GNVAGTFDV,-0.11 / -0.59 / -0.70 / -0.71 / 0.10 / 0.20,0/18
GFDLDEYGIS,VIYADGQRTFYADSVK,GNQAGTFDV,-0.62 / -1.62 / ND / ND / -0.49 / -1.02,0/18
GFDLNEYGIS,VIYADGVRTAYADNVK,GEVAGTFDQ,-0.04 / -0.34 / -0.38 / -0.58 / -0.68 / -0.26,0/18
GFDLDEYGIS,VIYADGKRTAYADDVK,GNVAGTFDM,1.25 / -1.02 / -1.17 / -0.75 / -1.06 / -0.55,0/18
GFDLNEYGIS,VIYADGKRTAYSDSVK,GSNAGTFDI,-0.79 / -1.09 / -1.24 / -0.92 / -1.09 / -1.04,0/18
GFDLNEYGIS,VIYADGQRTAYADKVK,GQNAGTFDV,ND / -0.28 / ND / -1.04 / -0.59 / -0.97,0/18
GFDLDEYGIS,VIYADGVRTAYSDSVK,GNQAGTFDV,0.65 / 0.09 / ND / -0.06 / 0.08 / 0.60,0/18
GFDLDEYGIS,VIYADGKRTAYADDVK,GTNAGTFDV,-0.11 / -0.16 / -0.31 / 0.36 / -0.36 / -0.10,0/18
GFDLNEYGIS,VIYADGVRTAYSDSVK,GNQAGTFDT,-0.62 / -0.65 / -0.70 / -0.68 / -0.43 / -0.44,1/18 (1.14)
GFDLNEYGIS,VIYADGMRTAYANSVK,GNVAGTFDV,-0.72 / -0.72 / -0.88 / -0.88 / -0.84 / -0.84,0/18
GFDLDEYGIS,VIYADGKRTSYADSVK,GNVAGTFDV,-0.11 / -0.46 / -0.80 / -0.24 / -0.52 / -0.04,0/18
GFDLNEYGIS,VIYADGQRTAYADDVK,GQNAGTFDI,0.11 / -0.19 / -0.38 / -0.25 / -0.49 / -0.11,0/18
GFDLDEYGIS,VIYADGMRTQYADSVK,GNVAGTFDV,-0.57 / -0.11 / ND / -0.55 / 0.99 / 0.26,0/18

From the list, the first 3 with no signal in any replicate:

CDR-H1,CDR-H2,CDR-H3,log10 Kd (nM) by replicate,empty controls
GFDLNEYGIS,VIYADGQRTAYADDVK,GENAGTFDM,ND / ND / ND / ND / ND / ND,0/18
GFDLNEYGIS,VIYADGMRTAYADNVK,GNEAGTFDL,ND / ND / ND / ND / ND / ND,0/18
GFDLNEYGIS,VIYADGQRTFYADSVK,GTNAGTFDV,ND / ND / ND / ND / ND / ND,0/18